The list shows a part of the results.
Columns and labels:
Experiment in all cases: FOREST: bead pull-down of RNA structure library v1, barcode microarray; U1A/LIN28A: 20 mM HEPES pH 7.5, 80 mM KCl, 20 mM NaCl, 10% glycerol, 2 mM DTT, 0.1 ug/uL BSA, 4 C; BG4/CIRBP/DHX36: 10 mM Tris-HCl pH 7.5, 100 mM KCl (or LiCl),; high values mean tight binding
[1] = target: T1, LIN28A (human?, UniProt Q9H9Z2 1-209)
T1 sequence: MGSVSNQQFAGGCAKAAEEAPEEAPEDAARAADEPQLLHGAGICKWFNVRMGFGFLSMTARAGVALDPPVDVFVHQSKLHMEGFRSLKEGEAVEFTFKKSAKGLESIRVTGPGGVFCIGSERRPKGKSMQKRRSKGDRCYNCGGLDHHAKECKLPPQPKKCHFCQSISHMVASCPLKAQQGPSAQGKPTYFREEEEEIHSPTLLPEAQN

[2] = target: T2, CIRBP (Homo sapiens, UniProt Q14011 1-172)
T2 sequence: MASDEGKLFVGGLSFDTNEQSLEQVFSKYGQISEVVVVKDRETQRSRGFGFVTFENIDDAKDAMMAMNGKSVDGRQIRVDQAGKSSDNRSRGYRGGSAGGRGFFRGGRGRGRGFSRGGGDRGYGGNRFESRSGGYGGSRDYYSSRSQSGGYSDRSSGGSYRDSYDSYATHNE

[3] = target: T3, DHX36 (Homo sapiens, UniProt Q9H2U1 1-1008)
T3 sequence: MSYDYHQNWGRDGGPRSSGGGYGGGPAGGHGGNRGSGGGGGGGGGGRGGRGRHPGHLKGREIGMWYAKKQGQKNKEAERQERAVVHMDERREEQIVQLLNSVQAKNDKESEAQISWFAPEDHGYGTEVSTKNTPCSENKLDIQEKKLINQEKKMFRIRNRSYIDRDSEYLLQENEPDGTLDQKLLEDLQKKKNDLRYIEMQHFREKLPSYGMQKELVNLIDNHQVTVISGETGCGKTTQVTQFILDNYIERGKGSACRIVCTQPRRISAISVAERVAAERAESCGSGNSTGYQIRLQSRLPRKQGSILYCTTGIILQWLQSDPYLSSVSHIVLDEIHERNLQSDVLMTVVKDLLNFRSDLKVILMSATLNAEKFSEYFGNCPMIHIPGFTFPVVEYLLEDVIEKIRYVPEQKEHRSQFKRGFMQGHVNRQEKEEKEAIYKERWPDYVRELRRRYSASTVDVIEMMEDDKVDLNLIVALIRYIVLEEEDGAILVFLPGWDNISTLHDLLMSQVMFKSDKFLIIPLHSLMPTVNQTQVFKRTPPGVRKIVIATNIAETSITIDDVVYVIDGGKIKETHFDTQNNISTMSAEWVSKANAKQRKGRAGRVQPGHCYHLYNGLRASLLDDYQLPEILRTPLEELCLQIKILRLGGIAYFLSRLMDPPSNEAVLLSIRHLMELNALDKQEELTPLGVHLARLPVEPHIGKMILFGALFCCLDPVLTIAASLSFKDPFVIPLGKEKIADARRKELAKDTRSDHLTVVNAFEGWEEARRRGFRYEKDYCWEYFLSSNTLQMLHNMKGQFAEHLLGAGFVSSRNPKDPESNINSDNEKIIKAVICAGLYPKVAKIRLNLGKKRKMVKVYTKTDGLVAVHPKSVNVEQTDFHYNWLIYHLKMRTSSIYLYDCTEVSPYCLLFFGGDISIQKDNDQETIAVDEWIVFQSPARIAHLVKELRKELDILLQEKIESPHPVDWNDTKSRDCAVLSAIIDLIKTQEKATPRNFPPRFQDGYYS

B1: hsa-mir-8071-1_8071-2 (structured_RNA)
RNA: GGGAAACUACUAGCUAGCAAGUAAGGGCGGUGUACGAAGUUUCAGCCCGAGUGAUCUCGGUGCUGAAGCUUCGUGCAC
With B1 the binding signal [1] was -1.56 z-score, the binding signal [2] was -0.367 z-score and the binding signal [3] was -1.99 z-score.

B2: hsa-mir-1303 (structured_RNA)
RNA: GGGAAAGUCCGUGGAUCAAGCCAUCUUGGGUGUACGAAGUUUCAGCUACAAUUUUUUUUUUUUUAAAUUUUAGCUGAAGCUUCGUGCAC
B2 gave a binding signal [1] of -1.6 z-score, a binding signal [2] of -0.0764 z-score and a binding signal [3] of -0.103 z-score.

B3: hsa-mir-6819 (structured_RNA)
RNA: GGGAAACCAACUAUUCGGACCUUCCUUGGGUGUACGAAGUUUCAGCGAGCUGGGUGGGGUGCCAAGCCUGCUGAAGCUUCGUGCAC
With B3 the binding signal [1] was -1.45 z-score, the binding signal [2] was -0.308 z-score and the binding signal [3] was 0.12 z-score.

B4: hsa-mir-548ai (structured_RNA)
RNA: GGGAACGGAAUUGGAGCCUAGACGCAAUGGUGUACGAAGUUUCAGCCCCAUUUAAAAUAUGGAAGCUGAAGCUUCGUGCAC
B4 was tested, and the binding signal [1] was -1.58 z-score, the binding signal [2] was 0.207 z-score and the binding signal [3] was -0.0326 z-score.

B5: hsa-mir-1268b (structured_RNA)
RNA: GGGAGCUCGGAUCCCAAUGCUCAAUCUGGGUGUACGAAGUUUCAGCGGUGGGUGCCGCUGAAGCUUCGUGCAC
Binder B5 has a binding signal [1] of -1.53 z-score, a binding signal [2] of -0.692 z-score and a binding signal [3] of -0.931 z-score.

B6: hsa-mir-3618 (structured_RNA)
RNA: GGGAAAUAAGACCCGGGAUUCAAAACGAGGUGUACGAAGUUUCAGCGGCAGUGGUUCUAAAAGCUGUCGCUGAAGCUUCGUGCAC
B6 gave a binding signal [1] of -1.52 z-score, a binding signal [2] of -1.47 z-score and a binding signal [3] of -1.35 z-score.

B7: hsa-mir-4763 (structured_RNA)
RNA: GGGAAUGAAAACCCGUAGCGUAAACAGAGGUGUACGAAGUUUCAGCUGCUCUGGUGACUGAGGACCGCCAGGCAGCUGAAGCUUCGUGCAC
Work on B7 yielded a binding signal [1] of -1.56 z-score, a binding signal [2] of -0.0924 z-score and a binding signal [3] of -1.05 z-score.

B8: hsa-mir-1254-1 (structured_RNA)
RNA: GGGAAAUGGGCAUCUGGCUAUCUCACCGGGUGUACGAAGUUUCAGCCAGUGAACUAUCAUUGUGCCACUGGCUGAAGCUUCGUGCAC
B8 gave a binding signal [1] of -1.58 z-score, a binding signal [2] of -0.123 z-score and a binding signal [3] of 0.0231 z-score.

B9: NEAT1_ParasoR_ID15 (structured_RNA)
RNA: GGGAAUCGAGCUAGAGGCGACCAAUGAAGGUGUACGAAGUUUCAGCUAAUUAGGCGUUUGUCUUUUUAGCUGAAGCUUCGUGCAC
Work on B9 yielded a binding signal [1] of -1.54 z-score, a binding signal [2] of 1.03 z-score and a binding signal [3] of -0.225 z-score.

B10: hsa-mir-602 (structured_RNA)
RNA: GGGCAAACAACGGAGUGGGUCGACUCUUGGUGUACGAAGUUUCAGCGCCCGCUGUGUUCACUCGGGCGCUGAAGCUUCGUGCAC
B10 was tested, and the binding signal [1] was -1.53 z-score, the binding signal [2] was -1.32 z-score and the binding signal [3] was -0.769 z-score.

B11: hsa-mir-1267 (structured_RNA)
RNA: GGGACCAGCGACCUCCAGUCUUAGCUGUGGUGUACGAAGUUUCAGCCCCACCUCCAGCAUUGGGGCUGAAGCUUCGUGCAC
B11 gave a binding signal [1] of -1.49 z-score, a binding signal [2] of -3.82 z-score and a binding signal [3] of -1.49 z-score.

B12: hsa-mir-4767 (structured_RNA)
RNA: GGGAGCAAUGGCAUGAGCUAAGAACUUCGGUGUACGAAGUUUCAGCCGCCCGACUUCGGGGGCUGAAGCUUCGUGCAC
B12 showed a binding signal [1] of -1.48 z-score and a binding signal [2] of 0.716 z-score.

B13: hsa-mir-656 (structured_RNA)
RNA: GGGCAUCGAGCACCCCUGAGCAUCGUAAGGUGUACGAAGUUUCAGCUGUUCACUUUCUAUAUGAUGAAUAGCUGAAGCUUCGUGCAC
Binder B13 has a binding signal [1] of -1.6 z-score, a binding signal [2] of -0.639 z-score and a binding signal [3] of -0.908 z-score.

B14: hsa-mir-548x-2 (structured_RNA)
RNA: GGGACGGGACUCUCAACAAUUACGCCCGGGUGUACGAAGUUUCAGCUUUGCCAUUAAAAGUAAUGGUAAAGCUGAAGCUUCGUGCAC
B14 gave a binding signal [1] of -1.6 z-score, a binding signal [2] of -0.534 z-score and a binding signal [3] of -0.576 z-score.

B15: hsa-mir-187 (structured_RNA)
RNA: GGGAAGUAUACGCCAAUGCCGAAUCUGGGGUGUACGAAGUUUCAGCCCGGGCGCUGCUCUGACCCCUCGUGCUGAAGCUUCGUGCAC
B15 showed a binding signal [1] of -1.55 z-score, a binding signal [2] of -0.811 z-score and a binding signal [3] of -0.799 z-score.

B16: hsa-mir-185 (structured_RNA)
RNA: GGGAAAGCAUCCUUGGACUUGACCACCCGGUGUACGAAGUUUCAGCUCCUGAUGGUCCCCUCCCCAGGGGCUGAAGCUUCGUGCAC
For B16, the binding signal [1] was -1.48 z-score, the binding signal [2] was -0.585 z-score and the binding signal [3] was -0.503 z-score.

B17: hsa-mir-525 (structured_RNA)
RNA: GGGAACACGGGUUGAGAAUCAGCCUAUAGGUGUACGAAGUUUCAGCUUUCUCUUAUGUGAAAAAAAAGAAGGCUGAAGCUUCGUGCAC
Work on B17 yielded a binding signal [1] of -1.5 z-score, a binding signal [2] of -0.872 z-score and a binding signal [3] of -1.21 z-score.

B18: hsa-mir-548h-2 (structured_RNA)
RNA: GGGAGAAUCGGAGCGUGCUCGAUACCACGGUGUACGAAGUUUCAGCUGUCAUUACUUUCAAUGGCAGCUGAAGCUUCGUGCAC
Work on B18 yielded a binding signal [1] of -1.51 z-score, a binding signal [2] of -0.482 z-score and a binding signal [3] of 0.667 z-score.

B19: hsa-mir-8058 (structured_RNA)
RNA: GGGACGUCGAGUCAUAGCUGGAAAGCGGGGUGUACGAAGUUUCAGCCCAGGCCCCACGGAGAACCAGGGCACCUGGGCUGAAGCUUCGUGCAC
For B19, the binding signal [1] was -1.5 z-score, the binding signal [2] was -0.948 z-score and the binding signal [3] was -0.453 z-score.

B20: hsa-mir-548bb (structured_RNA)
RNA: GGGAAAAUGAACCGCCGCGACUUUAAAGGGUGUACGAAGUUUCAGCUUGCCCAAGCUGAAGCUUCGUGCAC
B20 gave a binding signal [1] of -1.51 z-score, a binding signal [2] of -0.879 z-score and a binding signal [3] of -0.607 z-score.

B21: hsa-mir-3121 (structured_RNA)
RNA: GGGAAGGAACCAGUCAUAAAGGAUUACCGGUGUACGAAGUUUCAGCUUUAAGACACCCUGUACCUUAAAGCUGAAGCUUCGUGCAC
For B21, the binding signal [1] was -1.5 z-score, the binding signal [2] was -1.26 z-score and the binding signal [3] was -1.54 z-score.

B22: hsa-mir-5691 (structured_RNA)
RNA: GGGAACCUGCUAUAGGAACCGAAUCCUGGGUGUACGAAGUUUCAGCAAGCUGACAGACAGCUGGCUGAAGCUUCGUGCAC
With B22 the binding signal [1] was -1.49 z-score, the binding signal [2] was -0.123 z-score and the binding signal [3] was 0.27 z-score.

B23: hsa-mir-593 (structured_RNA)
RNA: GGGACAGACGAACGCCGACAAGUGUUCCGGUGUACGAAGUUUCAGCCACCAGCCAGGCAUUGCUCAGCCCGUUUCCCUCUGGGGGAGCAAGGAGUGGUGCUGGGUUUGUCGCUGAAGCUUCGUGCAC
Work on B23 yielded a binding signal [1] of -1.58 z-score, a binding signal [2] of -0.865 z-score and a binding signal [3] of 0.0126 z-score.

B24: hsa-mir-586 (structured_RNA)
RNA: GGGAACUUGACUAAGCUGUUGACCCAGAGGUGUACGAAGUUUCAGCGUCCCAAUACAUGUGGGCCGCUGAAGCUUCGUGCAC
In the case of B24, the binding signal [1] is reported as -1.5 z-score, the binding signal [2] is reported as 0.0449 z-score and the binding signal [3] is reported as -1.02 z-score.

B25: hsa-mir-6894 (structured_RNA)
RNA: GGGACCAAAUGAAACGGGACGCACACUAGGUGUACGAAGUUUCAGCGCCAGACAUGCUCUUGCGCUGAAGCUUCGUGCAC
With B25 the binding signal [1] was -1.55 z-score, the binding signal [2] was -0.257 z-score and the binding signal [3] was -0.995 z-score.

B26: hsa-mir-372 (structured_RNA)
RNA: GGGACGGUACACUGUGAACCGUUCCUACGGUGUACGAAGUUUCAGCUAUUCUGAUGUCCAAGUGGAAAGCUGAAGCUUCGUGCAC
With B26 the binding signal [1] was -1.55 z-score, the binding signal [2] was -0.638 z-score and the binding signal [3] was -1.75 z-score.

— article PMC7723054
